# From PubChem BioAssay (NCI)
#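 1) Cells in 96-well plates. 2) Compound, 48 h, 5 concentrations. 3) Linear interpolation between surrounding doses. 4) Unreached endpoint = highest concentration. At the GI50, growth is halved. TGI is the concentration that stops growth completely.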
# Assays:
# Experiment in all cases: growth of human tumour cells (NCI), 48 h
# K-562 leukemia = system: K-562 leukemia
# CAKI-1 renal = system: CAKI-1 renal
# CCRF-CEM leukemia = system: CCRF-CEM leukemia
# HS 578T breast = system: HS 578T breast
# HT29 colon = system: HT29 colon
# OVCAR-3 ovarian = system: OVCAR-3 ovarian
# MDA-MB-231 breast = system: MDA-MB-231 breast
# SNB-19 CNS = system: SNB-19 CNS
# EKVX NSCLC = system: EKVX NSCLC
# KM12 colon = system: KM12 colon
# HCT-15 colon = system: HCT-15 colon
# NCI-H522 lung = system: NCI-H522 lung
# SF-295 CNS = system: SF-295 CNS
# SK-MEL-5 melanoma = system: SK-MEL-5 melanoma
# T-47D breast = system: T-47D breast
# TK-10 renal = system: TK-10 renal
# SF-539 CNS = system: SF-539 CNS
# A498 renal = system: A498 renal
# OVCAR-5 ovarian = system: OVCAR-5 ovarian
# SF-268 CNS = system: SF-268 CNS
# UACC-62 melanoma = system: UACC-62 melanoma
# M14 melanoma = system: M14 melanoma
# ACHN renal = system: ACHN renal
# A549 NSCLC = system: A549 NSCLC
# NCI-H23 lung = system: NCI-H23 lung
# 786-0 renal = system: 786-0 renal
# SK-MEL-28 melanoma = system: SK-MEL-28 melanoma
# OVCAR-8 ovarian = system: OVCAR-8 ovarian
# HCT-116 colon = system: HCT-116 colon
# MCF7 breast = system: MCF7 breast
# UACC-257 melanoma = system: UACC-257 melanoma
# MDA-N = system: MDA-N
# MALME-3M melanoma = system: MALME-3M melanoma
# OVCAR-4 ovarian = system: OVCAR-4 ovarian
# SW-620 colon = system: SW-620 colon
# COLO 205 colon = system: COLO 205 colon
# NCI-H460 lung = system: NCI-H460 lung
# NCI-H322M lung = system: NCI-H322M lung
# UO-31 renal = system: UO-31 renal
# LOX IMVI melanoma = system: LOX IMVI melanoma
# SNB-75 CNS = system: SNB-75 CNS
# PC-3 prostate = system: PC-3 prostate
# NCI-H226 lung = system: NCI-H226 lung
# SK-MEL-2 melanoma = system: SK-MEL-2 melanoma
# HCC-2998 colon = system: HCC-2998 colon
# BT-549 breast = system: BT-549 breast
# NCI/ADR-RES ovarian = system: NCI/ADR-RES ovarian
# SN12C renal = system: SN12C renal
# U251 CNS = system: U251 CNS
# RXF 393 renal = system: RXF 393 renal
# SK-OV-3 ovarian = system: SK-OV-3 ovarian
# RPMI-8226 leukemia = system: RPMI-8226 leukemia
# DU-145 prostate = system: DU-145 prostate
# HL-60(TB) leukemia = system: HL-60(TB) leukemia
# MDA-MB-435 = system: MDA-MB-435
# HOP-92 NSCLC = system: HOP-92 NSCLC
# IGROV1 ovarian = system: IGROV1 ovarian
compound,measurement,setting,value
CCCCCCCCCCCCCCC[C@@H]1C[N+](C)(C)CCO[P@@](C)(=O)O1,GI50,K-562 leukemia,3.38 µM
same,TGI,K-562 leukemia,40.3 µM
same,GI50,CAKI-1 renal,1.23 µM
same,TGI,CAKI-1 renal,6.24 µM
same,GI50,CCRF-CEM leukemia,0.727 µM
same,TGI,CCRF-CEM leukemia,17.1 µM
same,GI50,HS 578T breast,0.472 µM
same,TGI,HS 578T breast,2.58 µM
same,GI50,HT29 colon,0.524 µM
same,TGI,HT29 colon,3.97 µM
same,GI50,OVCAR-3 ovarian,2.37 µM
same,TGI,OVCAR-3 ovarian,> 100 µM
same,GI50,MDA-MB-231 breast,1.18 µM
same,TGI,MDA-MB-231 breast,4.51 µM
same,GI50,SNB-19 CNS,1.13 µM
same,TGI,SNB-19 CNS,2.55 µM
same,GI50,EKVX NSCLC,9.42 µM
same,TGI,EKVX NSCLC,34.9 µM
same,GI50,KM12 colon,0.207 µM
same,TGI,KM12 colon,0.515 µM
same,GI50,HCT-15 colon,1.49 µM
same,TGI,HCT-15 colon,10.5 µM
same,GI50,NCI-H522 lung,0.55 µM
same,TGI,NCI-H522 lung,2.52 µM
same,GI50,SF-295 CNS,1.19 µM
same,TGI,SF-295 CNS,3.36 µM
same,GI50,SK-MEL-5 melanoma,5.54 µM
same,TGI,SK-MEL-5 melanoma,37.9 µM
same,GI50,T-47D breast,7.51 µM
same,TGI,T-47D breast,> 100 µM
same,GI50,TK-10 renal,1.57 µM
same,TGI,TK-10 renal,3.13 µM
same,GI50,SF-539 CNS,1.84 µM
same,TGI,SF-539 CNS,5.78 µM
same,GI50,A498 renal,10.1 µM
same,TGI,A498 renal,85.4 µM
same,GI50,OVCAR-5 ovarian,2.2 µM
same,TGI,OVCAR-5 ovarian,8.91 µM
same,GI50,SF-268 CNS,1.18 µM
same,TGI,SF-268 CNS,2.68 µM
same,GI50,UACC-62 melanoma,3.17 µM
same,TGI,UACC-62 melanoma,17.1 µM
same,GI50,M14 melanoma,2.8 µM
same,TGI,M14 melanoma,14.2 µM
same,GI50,ACHN renal,2.58 µM
same,TGI,ACHN renal,14.3 µM
same,GI50,A549 NSCLC,1.52 µM
same,TGI,A549 NSCLC,4.53 µM
same,GI50,NCI-H23 lung,0.915 µM
same,TGI,NCI-H23 lung,2.87 µM
same,GI50,786-0 renal,0.213 µM
same,TGI,786-0 renal,0.525 µM
same,GI50,SK-MEL-28 melanoma,25.4 µM
same,TGI,SK-MEL-28 melanoma,68.9 µM
same,GI50,OVCAR-8 ovarian,2.54 µM
same,TGI,OVCAR-8 ovarian,8.92 µM
same,GI50,HCT-116 colon,2.38 µM
same,TGI,HCT-116 colon,88.8 µM
same,GI50,MCF7 breast,3.91 µM
same,TGI,MCF7 breast,27.6 µM
same,GI50,UACC-257 melanoma,8.73 µM
same,TGI,UACC-257 melanoma,34.2 µM
same,GI50,MDA-N,13.6 µM
same,TGI,MDA-N,44.2 µM
same,GI50,MALME-3M melanoma,2.7 µM
same,TGI,MALME-3M melanoma,8.52 µM
same,GI50,OVCAR-4 ovarian,2.82 µM
same,TGI,OVCAR-4 ovarian,13.3 µM
same,GI50,SW-620 colon,3.14 µM
same,TGI,SW-620 colon,43.1 µM
same,GI50,COLO 205 colon,0.933 µM
same,TGI,COLO 205 colon,5.24 µM
same,GI50,NCI-H460 lung,0.376 µM
same,TGI,NCI-H460 lung,1.6 µM
same,GI50,NCI-H322M lung,11.6 µM
same,TGI,NCI-H322M lung,31.3 µM
same,GI50,UO-31 renal,7.8 µM
same,TGI,UO-31 renal,24 µM
same,GI50,LOX IMVI melanoma,0.51 µM
same,TGI,LOX IMVI melanoma,2.96 µM
same,GI50,SNB-75 CNS,0.41 µM
same,TGI,SNB-75 CNS,1.92 µM
same,GI50,PC-3 prostate,0.434 µM
same,TGI,PC-3 prostate,1.69 µM
same,GI50,NCI-H226 lung,1.62 µM
same,TGI,NCI-H226 lung,7.52 µM
same,GI50,SK-MEL-2 melanoma,19.1 µM
same,TGI,SK-MEL-2 melanoma,54.5 µM
same,GI50,HCC-2998 colon,1.55 µM
same,TGI,HCC-2998 colon,3.8 µM
same,GI50,BT-549 breast,1.25 µM
same,TGI,BT-549 breast,3.72 µM
same,GI50,NCI/ADR-RES ovarian,16.5 µM
same,TGI,NCI/ADR-RES ovarian,35.4 µM
same,GI50,SN12C renal,1.81 µM
same,TGI,SN12C renal,7.11 µM
same,GI50,U251 CNS,0.462 µM
same,TGI,U251 CNS,1.96 µM
same,GI50,RXF 393 renal,0.722 µM
same,TGI,RXF 393 renal,2.24 µM
same,GI50,SK-OV-3 ovarian,4.69 µM
same,TGI,SK-OV-3 ovarian,24.4 µM
same,GI50,RPMI-8226 leukemia,0.537 µM
same,TGI,RPMI-8226 leukemia,2.38 µM
same,GI50,DU-145 prostate,5.27 µM
same,TGI,DU-145 prostate,48 µM
same,GI50,HL-60(TB) leukemia,> 100 µM
same,TGI,HL-60(TB) leukemia,> 100 µM
same,GI50,MDA-MB-435,9.48 µM
same,TGI,MDA-MB-435,59.3 µM
same,GI50,HOP-92 NSCLC,1.37 µM
same,TGI,HOP-92 NSCLC,5.99 µM
same,GI50,IGROV1 ovarian,0.358 µM
same,TGI,IGROV1 ovarian,1.93 µM
